# scFv variants of Ab-91 (heavy chain) against a SARS-CoV-2 spike peptide

From the AlphaSeq antibody data of Engelhart et al. 2022 (doi:10.1038/s41597-022-01779-4), copy in the FLAb collection.

The target is the same throughout: PDVDLGDISGINAS, from the HR2 region of SARS-CoV-2 spike.

Each scFv is VL, three GGGGS repeats, VH, as in the parent Ab-91, and differs from it in the CDRs of the heavy chain only.
VL: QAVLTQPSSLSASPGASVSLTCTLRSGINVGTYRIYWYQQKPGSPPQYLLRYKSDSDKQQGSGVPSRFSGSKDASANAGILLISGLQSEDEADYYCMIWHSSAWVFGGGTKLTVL
VH: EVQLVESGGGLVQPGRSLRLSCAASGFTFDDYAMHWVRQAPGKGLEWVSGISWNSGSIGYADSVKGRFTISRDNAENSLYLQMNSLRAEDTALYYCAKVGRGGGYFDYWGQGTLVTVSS

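The starting antibody came from a phage panning campaign against this peptide. AAYL51 was designed without a model: most single CDR substitutions and a random sample of double and triple ones. The assay is AlphaSeq: two haploid yeast populations carry antibody and antigen on their surface. Mating (16 h, 30 °C) was followed by selection of diploids and sequencing of their barcodes. Read counts were normalised to the haploid input and turned into Kd by a linear fit to BCL2-family pairs of known affinity, for each replicate. There are three technical replicates.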

Each variant is given by its three heavy chain CDRs, as the data file delimits them; those of the parent are GFTFDDYAMH, GISWNSGSIGYADSVK, VGRGGGYFDY. Values are log10 of the apparent Kd in nM; lower means stronger binding. A pair that was not seen in that replicate is written "ND"; this usually means weak binding, but a binder can also be missed. In this assay the parent's reference entry averaged 1.86; its copy inside this library read 0.88.

| # | CDR-H1 | CDR-H2 | CDR-H3 | log10 Kd, replicates | signal with controls |
|---|---|---|---|---|---|
| 1 | GFTFDDYKMH | GIKWNSGSIGYADSVK | VGRGGGYFDY | ND / ND / ND | 1 of 9 (4.63) |
| 2 | GTTFDDYAMH | GISWNSGSIGYADSVK | VGRGGGTDDY | 3.44 / 3.30 / ND | 1 of 9 (3.73) |
| 3 | GFTCDDYAMH | GISWNSASIGYADSVK | VGRGGGYFQY | ND / ND / ND | 1 of 9 (3.85) |
| 4 | GFTFDDYASH | GISWNSGSIGYADSVK | VGRGPGAFDY | ND / ND / ND | 1 of 9 (3.77) |
| 5 | SFTFDDYAMN | GISWNDGSIGYADSVK | VGRGGGYFDY | ND / ND / ND | 1 of 9 (3.35) |
| 6 | GFTFPDYAMH | GIVWNSGSIGYADSVK | VGRGWGYFDY | 4.96 / ND / ND | 1 of 9 (3.81) |
| 7 | GFTQDDYAMH | GILLNSGSIGYADSVK | VGRGGGYFDY | ND / ND / ND | 0 of 9 |
| 8 | GFTFDDYAMH | GISWNSGSIGYADSVK | VGRGGPYFDY | 3.16 / 2.84 / 3.30 | 6 of 9 (5.20) |
| 9 | GFTFDHYAMH | GISWNSGSIGYADSVK | AGRYGGYFDY | ND / ND / ND | 0 of 9 |
| 10 | GFYFDDYAMH | GSSWNSGSIGCADSVK | VGRGGGYFDY | 4.78 / ND / ND | 3 of 9 (5.76) |
| 11 | GFSFDDYAMH | GIPWNSGSIAYADSVK | VGRGGGYFDY | 5.05 / ND / 5.24 | 7 of 9 (5.14) |
| 12 | GFTFDDYAMH | GISWNSGSIGYVDSVK | VGRGEGYPDY | 2.88 / 2.89 / 2.46 | 1 of 9 (4.68) |
| 13 | DFTFDDYAMH | GISWNSGSIGVADSVK | VLRGGGYFDY | 4.45 / 5.39 / 5.67 | 8 of 9 (4.93) |
| 14 | GFTFDDYAMS | DIAWNSGSIGYADSVK | VGRGGGYFDY | 4.65 / 4.38 / 4.52 | 2 of 9 (4.88) |
| 15 | GFTFDDYAMW | GISWNSGSIGYADSNK | VGRAGGYFDY | ND / ND / ND | 0 of 9 |
| 16 | GFTFDDYHMH | GISWNSGSIGEADMVK | VGRGGGYFDY | ND / ND / ND | 4 of 9 (4.23) |
| 17 | GFTFDDYAMH | GISWNSGSITYADSVK | VCRGGGYFDY | 5.72 / ND / 4.31 | 2 of 9 (4.99) |
| 18 | GFTFDDYRMH | GIEWNSGSIGYADSVK | VGRGGGYFDY | 6.02 / 5.18 / 6.12 | 9 of 9 (5.20) |
| 19 | GFTFVDYAMH | GISWNSGSIGYADSVK | VGRGGGYYRY | ND / ND / ND | 2 of 9 (4.31) |
| 20 | RFTFDDYAMH | GISWNSGSIDYADSVK | VGRGGGYFMY | ND / ND / ND | 0 of 9 |
| 21 | GFTFDDYAMH | MISWNSGSIGYADSVK | VGRGSGYFDY | 5.80 / 4.76 / ND | 2 of 9 (4.33) |
| 22 | GFEFDDYAMH | GISWDSGSIGYADSVK | VKRGGGYFDY | 3.57 / ND / 4.46 | 3 of 9 (3.91) |
| 23 | GFTFDDYAQH | GIGWNSGSIGYAHSVK | VGRGGGYFDY | 4.54 / ND / ND | 3 of 9 (5.18) |
| 24 | GFTFDDYAMH | GISWESGSIGYADSVK | VGRYGGYFGY | ND / 4.08 / ND | 1 of 9 (4.29) |
| 25 | GFTFDDYAMH | GISWNSEYIGFADSVK | VGRGGGYFDY | 4.19 / 6.72 / 4.01 | 5 of 9 (4.43) |
| 26 | EFTFDDYAMH | GISWNSGSIGGADSVK | VGRGGGYFDY | ND / ND / ND | 0 of 9 |
| 27 | GFTFDDYADH | GISWNSGSTGYADSVK | VGRGGGYFDY | ND / ND / ND | 1 of 9 (3.83) |
| 28 | GFTFDDRSMH | GISWNSGSIGCADSVK | VGRGGGYFDY | ND / ND / ND | 0 of 9 |
| 29 | GFKPADYAMH | GISWNSGSIGYADSVK | VGRGGGYFDY | 3.57 / ND / ND | 1 of 9 (4.17) |
| 30 | GFQFDDYAMK | GISWNSGSIGYADSVK | VGRGGGPFDY | ND / ND / ND | 1 of 9 (3.42) |
| 31 | GFTFDDYAMH | GISWNSGMIGYADSVK | VGRMGGYFDY | ND / ND / ND | 2 of 9 (4.19) |
| 32 | GFTFDKYAMH | SISWNSGSIRYADSVK | VGRGGGYFDY | 4.25 / ND / ND | 0 of 9 |
| 33 | GFTFDDYAMH | EISWNSGSAGFADSVK | VGRGGGYFDY | 3.39 / ND / ND | 1 of 9 (4.11) |
| 34 | GFTFDDYAMH | GISWNSGSIGYADSVK | VGRGGGYFHY | ND / 4.23 / ND | 1 of 9 (4.39) |
| 35 | GFTFDDYAMH | GISWNWGSIGYADTVK | VGRGGKYFDY | ND / ND / ND | 0 of 9 |
| 36 | GFTFDDYPMH | GISWNSGSIGYANSVK | VGRGGGYFDY | 3.00 / 2.52 / 3.71 | 0 of 9 |
| 37 | GFTFDDYAMH | GISRISGSIGYADSVK | YGRGGGYFDY | ND / ND / ND | 0 of 9 |
| 38 | GFTFDDYAMH | GISWNSGSIGYKKSVK | VGRGGGYFDY | ND / 4.90 / ND | 1 of 9 (5.22) |
| 39 | GFTFDDRAHH | GISWNSGSILYADSVK | VGRGGGYFDY | ND / ND / ND | 0 of 9 |
| 40 | GFTGYDYATH | GISWNSGSIGYADSVK | VGRGGGYFDY | ND / ND / ND | 1 of 9 (3.06) |
| 41 | GFTFDDYAMH | GISWNSGQIGYADYVK | VGRGLGYFDY | ND / 5.27 / ND | 2 of 9 (4.37) |
| 42 | GFTFDDYAIH | GISWNSGTIGYADSVK | VTRGGGYFDY | ND / ND / ND | 1 of 9 (5.41) |

A selection of 5 entries from above:

CDR-H1,CDR-H2,CDR-H3,"log10 Kd, replicates",signal with controls
GFTFDDYAMH,GISWNSGQIGYADYVK,VGRGLGYFDY,ND / 5.27 / ND,2 of 9 (4.37)
GFTFDKYAMH,SISWNSGSIRYADSVK,VGRGGGYFDY,4.25 / ND / ND,0 of 9
DFTFDDYAMH,GISWNSGSIGVADSVK,VLRGGGYFDY,4.45 / 5.39 / 5.67,8 of 9 (4.93)
GFEFDDYAMH,GISWDSGSIGYADSVK,VKRGGGYFDY,3.57 / ND / 4.46,3 of 9 (3.91)
GFTFDDYAMH,GISRISGSIGYADSVK,YGRGGGYFDY,ND / ND / ND,0 of 9

Empty control strains, which show no peptide, gave a signal in 21% of pairings with library AAYL51; the median was 4.54 and 95% of these signals were weaker than 3.26. No background was subtracted. For each scFv, signals with the empty controls are counted beside the result, with their mean in brackets.